Test results published in patent publication US20230241150A1, “Compositions and Uses Thereof” (Natur-Tech Pharmacal Co., Ltd, priority 2020, published 2023).

Test system: brain of convulsive mice
Format: in vivo, ICR mice
Conditions: carbamazepine 80 mg/kg intragastric daily 7 days; PTZ 80 mg/kg i.p.; n=12
Description: The mice in each group were given intragastric administration daily, for 7 consecutive days. 30 minutes after the last administration, except for the blank control group, the mice in the other groups were injected intraperitoneally with 80 mg/kg of PTZ to induce convulsions in the mice. Each mouse was placed in a separate cage for observation for 30 minutes, and behavioral changes such as stages of seizure, duration, latent period and mortality rate of the mice were recorded.
After completing the behavioral observation determined by the above relevant indicators, experiments were conducted to study the effect of the composition on the contents of NO, Na-K-ATP, Asp, and 5-HT in the brain of convulsive mice. After the behavioral observation was over, the mice were immediately executed, and the brain tissues and the required organs were quickly taken out, weighed, and then the brain tissues were placed in liquid nitrogen and stored in a refrigerator at -80° C. Blood stains on the surface were washed off with pre-cooled saline before measurement. The tissues were then weighed and PBS was added in a volume ratio of 1:9 to fully homogenize the brain tissues. The homogenate was centrifuged at 3000 r/min for 20 minutes. The supernatant was collected as samples for subsequent ELISA test to detect the content of GABA, Glu, NO, Na^+-K^+-ATP, Asp, 5-HT, etc.

NC(=O)N1c2ccccc2C=Cc2ccccc21 [Carbamazepine]
Asp content in the brain: 42.1 ± 1.2 pg/mL
